Laboratory results as given in PubChem BioAssay AID493005 (National Center for Advancing Translational Sciences (NCATS), 2010).
This is a selection; strong and weak results do not stand in their true shares. Some results for these compounds are left out of this collection, so the calls shown say nothing about other tests. Calls of active or inactive are those of the source. The call rests on the fitted dose curve; in most records, active means well fitted inhibition curve with a large enough effect in the main read-out, with a control signal flat (not every such curve was filed as active); inconclusive means small, poorly fitted or top-dose-only effect, or effect the other way, or a change in a side signal; inactive means no such curve, though single readings can be large or run the other way.

By UniProt entry, the sequences of proteins in these tests, tags left out.
UniProt Q99816, whole entry: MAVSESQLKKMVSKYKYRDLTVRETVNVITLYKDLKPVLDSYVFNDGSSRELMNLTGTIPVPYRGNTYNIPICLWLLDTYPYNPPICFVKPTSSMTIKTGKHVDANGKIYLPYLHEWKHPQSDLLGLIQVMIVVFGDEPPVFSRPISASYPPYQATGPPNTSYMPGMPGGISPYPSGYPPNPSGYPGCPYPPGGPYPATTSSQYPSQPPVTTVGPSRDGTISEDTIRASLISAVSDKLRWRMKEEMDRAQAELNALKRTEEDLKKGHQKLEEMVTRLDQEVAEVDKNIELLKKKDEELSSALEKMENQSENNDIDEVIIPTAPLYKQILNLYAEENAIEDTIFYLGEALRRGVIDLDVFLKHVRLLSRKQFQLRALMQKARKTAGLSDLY

molecular target: Tumor susceptibility gene 101 protein (Homo sapiens) (UniProt Q99816); assay: qHTS Assay for Iinhibitors of HIV-1 Budding by Blocking the Interaction of PTAP/TSG101; conditions: Fluorescence polarization, FITC-PTAP peptide / Tsg101 binding; at 115 µM (top of the series); further: % of control where 0% means no effect
Source text: NIH Molecular Libraries Probe Production Network [MLPCN] NIH Chemical Genomics Center [NCGC] MLPCN Grant: 1 R03 MH087464-01A1 PI Name: Dr. Eric Freed, NCI NCGC Assay Overview: Stages of the HIV-1 replication cycle, specifically virus assembly and release, provide underexploited targets for the development of novel antiviral inhibitors. The late stages of HIV-1 replication are mediated by the Gag precursor protein, Pr55Gag. Expression of Pr55Gag is both necessary and sufficient for the production of virus-like particles from Gag-expressing cells. The Gag protein hijacks key host proteins involved in endocytic machinery of the host cell to promote endosomal processing and viral budding. The budding process requires a direct interaction between a […] (PTAP) motif in the p6 domain of Gag and the cellular endosomal sorting protein known as Tsg101. In this way, the Gag PTAP motif promotes the host cells to recruit viral particles to the plasma membrane where the new viral particles are released, effectively turning the host cells into viral factories. A fluorescence anisotropy assay has been developed to quantitatively measure the PTAP-Tsg101 interaction which can be used to screen for inhibitors of this interaction.
NCGC Assay Protocol Summary: Two uL of the Tsg101 binding domain in buffer (10 mM HEPES pH 7.5; 0.15 M NaCl, 0.01% Tween 20; 3 mM EDTA;0.1 mM TCEP) was dispensed into Greiner black MB 1536-well plates (final concentration 10 uM). Then, 23 nL of compounds or DMSO were delivered to each well using a pin tool. Finally, 2 uL of a FITC-labeled peptide containing the PTAP motif (1) in the same buffer was dispensed (50 nM final concentration) and the binding was allowed to proceed for 20 min. at r.t. Fluorescent polarization was determined using FITC excitation and polarized emission filters on a Perkin Elmer Viewlux. Keywords: Tsg101, PTAP, Gag, HIV, fluorescent polarization, MLSMR, MLPCN, NIH Roadmap, qHTS, NCGC

How did the activity change, negative = inhibition turn out when `CN(C)c1cccc(C(=O)NCC2(N(C)C)CCCCC2)c1` was run?
The activity change, negative = inhibition was inactive: -4.93%.

With `O=C(OCCN1CCCC1)C(O)(c1ccccc1)c1ccccc1` as the molecule, how does the activity change, negative = inhibition read?
The activity change, negative = inhibition was inactive: -3.49%.

How did the activity change, negative = inhibition turn out when `CC(C)Oc1ccc(C(=O)NCC2(N(C)C)CCCCC2)cc1` was run?
The activity change, negative = inhibition was inactive: -6.01%.

With `COc1ccc(Br)c(C(=O)NCC2(N3CCCCC3)CCCCC2)c1` as the molecule, how does the activity change, negative = inhibition read?
Its activity change, negative = inhibition is inactive: -2.4%.

`O=C(OC1CN2CCC1CC2)C(CO)(c1ccccc1)c1ccccc1` (stereo not given) was tested. Which activity change, negative = inhibition did it give?
Its activity change, negative = inhibition is inactive: -0.167%.

With `O=C(NCC1(N2CCCCC2)CCCCC1)c1cccc(Cl)c1` as the molecule, how does the activity change, negative = inhibition read?
The activity change, negative = inhibition was inactive: -2.52%.

`COc1ccc(Cl)cc1C(=O)NCC1(N(C)C)CCCCC1` was tested. Which activity change, negative = inhibition did it give?
The activity change, negative = inhibition was inactive: -0.591%.

For `COc1cccc(C(=O)NCC2(N3CCCCC3)CCCCC2)c1`, which activity change, negative = inhibition is on record?
Its activity change, negative = inhibition is inactive: 0.856%.

Which activity change, negative = inhibition does the source give for `COc1cc(C(=O)NCC2(N(C)C)CCCCC2)c([N+](=O)[O-])cc1OC` here?
Its activity change, negative = inhibition is inactive: 3.93%.

How did the activity change, negative = inhibition turn out when `CN(C)C1(CNC(=O)c2ccc(Br)cc2)CCCCC1` was run?
The activity change, negative = inhibition was inactive: -1.37%.

`O=C(NCC1(N2CCCCC2)CCCCC1)c1cccc(Br)c1` was tested. Which activity change, negative = inhibition did it give?
The activity change, negative = inhibition was inactive: 0.374%.

`Cc1cc(C(=O)NCC2(N3CCCCC3)CCCCC2)ccc1[N+](=O)[O-]` was tested. Which activity change, negative = inhibition did it give?
The activity change, negative = inhibition was inactive: 0.204%.

For `CCN1CCCC(OC(=O)C2(O)c3ccccc3C=Cc3ccccc32)C1` (stereo not given), which activity change, negative = inhibition is on record?
The activity change, negative = inhibition was inactive: -9.68%.

How did the activity change, negative = inhibition turn out when `COc1ccc(C(=O)NCC2(N(C)C)CCCCC2)cc1` was run?
Its activity change, negative = inhibition is inactive: 0.561%.

Which activity change, negative = inhibition does the source give for `O=C(NCC1(N2CCCCC2)CCCCC1)c1cc(F)c(F)cc1Cl` here?
Its activity change, negative = inhibition is inactive: -0.547%.

For `C=CCN1CCN(CCOC(=O)C(O)(c2ccccc2)c2ccccc2)CC1`, which activity change, negative = inhibition is on record?
The activity change, negative = inhibition was inactive: -2.83%.

`CN(C)C1CCCC1OC(=O)C(O)(c1ccccc1)c1ccccc1` (stereo not given) was tested. Which activity change, negative = inhibition did it give?
The activity change, negative = inhibition was inactive: -4.32%.

Which activity change, negative = inhibition does the source give for `CN(C)c1ccc(C(=O)NCC2(N(C)C)CCCCC2)cc1` here?
Its activity change, negative = inhibition is inactive: -0.246%.

For `Cc1ccccc1C(=O)NCC1(N2CCCCC2)CCCCC1`, which activity change, negative = inhibition is on record?
Its activity change, negative = inhibition is inactive: -1.67%.

With `Cc1ccc(C(=O)NCC2(N3CCCCC3)CCCCC2)cc1` as the molecule, how does the activity change, negative = inhibition read?
The activity change, negative = inhibition was inactive: 1.99%.

With `CC(C)N1C(=O)CC2(CCN(CCOC(=O)C(O)(c3ccccc3)c3ccccc3)CC2)C1=O` as the molecule, how does the activity change, negative = inhibition read?
The activity change, negative = inhibition was inactive: -3.75%.

How did the activity change, negative = inhibition turn out when `COc1cc(SC)ccc1C(=O)NCC1(N(C)C)CCCCC1` was run?
The activity change, negative = inhibition was inactive: -1.17%.

`CCN(CC)CC(C)C(C)OC(=O)C(O)(c1ccccc1)c1ccccc1` (stereo not given) was tested. Which activity change, negative = inhibition did it give?
Its activity change, negative = inhibition is inactive: -4.78%.

With `CN1[C@@H]2CC[C@H]1CC(OC(=O)C(O)(c1ccccc1)c1ccccc1)C2` (stereo not given in full) as the molecule, how does the activity change, negative = inhibition read?
Its activity change, negative = inhibition is inactive: 0.469%.

Which activity change, negative = inhibition does the source give for `O=C(NCC1(N2CCCCC2)CCCCC1)c1cc([N+](=O)[O-])ccc1Cl` here?
Its activity change, negative = inhibition is inactive: -5.95%.
